Laboratory results published in US9738628B2, “Substituted 1H-indazol-1-OL analogs as inhibitors of beta catenin/Tcf protein-protein interactions” (University of Utah Research Foundation, priority 2012, dated 2017).

Chains of the proteins cited; added tags and fusions are not shown. Residues count along the entry.
UniProt P35222, 138-686: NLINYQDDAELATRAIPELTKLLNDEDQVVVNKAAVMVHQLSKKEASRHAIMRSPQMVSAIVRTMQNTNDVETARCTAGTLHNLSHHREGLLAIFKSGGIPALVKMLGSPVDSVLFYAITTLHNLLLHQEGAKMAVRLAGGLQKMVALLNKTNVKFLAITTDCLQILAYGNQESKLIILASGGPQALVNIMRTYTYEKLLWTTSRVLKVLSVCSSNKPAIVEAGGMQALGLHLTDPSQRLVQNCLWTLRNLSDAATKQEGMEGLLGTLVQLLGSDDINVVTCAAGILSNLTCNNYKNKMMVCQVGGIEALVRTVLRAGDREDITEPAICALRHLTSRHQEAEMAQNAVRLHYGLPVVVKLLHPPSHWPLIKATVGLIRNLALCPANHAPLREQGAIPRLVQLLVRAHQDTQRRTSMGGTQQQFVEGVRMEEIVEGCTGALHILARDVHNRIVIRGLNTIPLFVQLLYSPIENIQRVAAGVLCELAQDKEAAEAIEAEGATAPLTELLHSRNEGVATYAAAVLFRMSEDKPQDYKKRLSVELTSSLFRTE

Target: β-catenin/Tcf4 (Homo sapiens (Human), UniProt P35222)
Test: Fluorescence polarization (FP) competitive inhibition assay, β-catenin/Tcf4
Format: binding
Description: Experiments were performed in 96-well Microfluor 2 black plates (Waltham, Mass.), and the samples were read by a Synergy 2 plate reader (Biotek, Winooski, Vt.). […] The final reaction volume is 100 μL.

5-(2-(2H-tetrazol-5-yl)ethyl)-1H-indazole [Compound 16]
Ki: 180 ± 2.91 µM
